Consider 6 compounds from ChEMBL document CHEMBL3616460, “Discovery of novel S1P2 antagonists. Part 2: Improving the profile of a series of 1,3-bis(aryloxy)benzene derivatives” (Bioorg Med Chem Lett, 2015).

This experiment can be described thus: Selectivity index, ratio of IC50 for human S1P2 to IC50 for rat S1P2.

In the case of `NC(=O)c1ccc(Oc2cc(NC(=O)N3CCC(O)(c4ccc(F)cc4)CC3)cc(Oc3ccc(F)cc3)c2)cc1`, the Ratio IC50 was 4.5. For the compound `CCC(CC)CC1(O)CCN(C(=O)Nc2cc(F)cc(C(F)(F)F)c2)CC1`, the Ratio IC50 stood at 24.

`O=C(Nc1cc(F)cc(C(F)(F)F)c1)N1CCC(O)(c2ccc(Br)cc2)CC1`: the Ratio IC50 is 4.1. As for `CS(=O)(=O)c1ccc(Oc2cc(NC(=O)N3CCC(O)(c4ccc(F)cc4)CC3)cc(Oc3ccc(F)cc3)c2)cc1`, the figure is 8.3; as for `O=C(Nc1cc(Oc2ccncc2)cc(Oc2ccc(F)cc2)c1)N1CCC(O)(c2ccc(F)cc2)CC1`, 8.6.

With `NS(=O)(=O)c1ccc(Oc2cc(NC(=O)N3CCC(O)(c4ccc(F)cc4)CC3)cc(Oc3ccc(F)cc3)c2)cc1`, the Ratio IC50 was determined as 6.7.
